Measurements: patent US9803021B2 (The Regents of the University of California, priority 2012, dated 2017)

Assays:
Assay type in all cases: cell-based, human
[1] = system: NCI-H929; assay: MTS assay (cell viability / metabolic activity); settings: 3 days
Protocol: Percent cell viability was determined using MTS solution (Promega, Madison, Wis.) by measuring absorbance at 490 nm using a Synergy HT Multi-Detection Microplate Reader (BioTek Instruments, Inc., Winooski, Vt.) with untreated cells being 100%. GraphPad Prism (GraphPad Software Inc., La Jolla, Calif.) was used to analyze data by non-linear regression with the log (inhibitor) vs. the response with a variable slope with the IC50 calculated. Data are expressed as a percentage of maximum metabolic activity. The experiments were performed in triplicate.
Metabolic activity was determined using MTS solution (Promega) by measuring absorbance at 490 nm using a Synergy HT Multi-Detection Microplate Reader (BioTek Instruments Inc.) with untreated cells being 100%. GraphPad Prism (GraphPad Software Inc.) was used to analyze data by non-linear regression with the log (inhibitor) versus the response with a variable slope. Data are expressed as a percentage of maximum metabolic activity. The experiments were performed in triplicate.

[2] = system: 8226/S; assay: Cell cycle analysis (PI DNA content, flow cytometry); settings: 500 pM, 4 days
Protocol: (§1) Cells were incubated with 1 ml of hypotonic DNA staining buffer (1 mg/ml sodium citrate, 100 μg/ml PI, 20 μg/ml RNase A, and 0.3% Triton X-100 in dH2O) for 30-60 min at 4° C. in the dark. Cells were analyzed by flow cytometry and cell cycle analysis performed using FlowJo software with the Watson Model.
(§2) Cells were incubated with 1 ml of hypotonic DNA staining buffer (1 mg/ml sodium citrate, 100 μg/ml PI, 20 μg/ml RNase A, and 0.3% Triton X-100) for 30-60 minutes at 4° C. in the dark. Cells were analyzed by flow cytometry and cell cycle analysis performed using FlowJo software with the Watson Model.

[3] = system: ANBL-6; assay: as above; settings: ANBL-6, 500 pM, 4 days
Protocol: as §1, §2

[4] = system: MM1-144; assay: as above; settings: MM1-144, 500 pM, 4 days
Protocol: as §1, §2

[5] = system: NCI-H929; assay: as above; settings: NCI-H929, 500 pM, 4 days
Protocol: as §1, §2

[6] = system: OCI-My5; assay: as above; settings: OCI-My5, 500 pM, 4 days
Protocol: as §1, §2

[7] = system: U266; assay: as above; settings: U266, 500 pM, 4 days
Protocol: as §1, §2

[8] = system: NCI-H929; assay: Senescence induced β-gal activity at pH 6 (C12FDG, flow cytometry); settings: 1 nM, 3 days
Protocol: Senescence induced β-galactosidase (β-gal) activity was detected as described previously (Debacq-Chainiaux et al. (2009) Nature Protocols, 4: 1798-1806). […] To induce lysosomal alkalinization, cells were incubated in 100 nM bafilomycin A1 (Sigma) for 1 h. Then cells were incubated for 30 min with the β-gal substrate dodecanoylaminofluorescein di-β-D-galactopyranoside (C12FDG; Invitrogen), which becomes fluorescent after cleavage by β-gal. After washing twice with cold PBS, cells were resuspended in cold PBS containing 1 mM phenylethyl thiogalactoside (PETG), a β-gal inhibitor, and analyzed by flow cytometry for C12-fluorescein.
Intracellular β-galactosidase (β-gal) activity was measured as an indicator for replicative senescence. […] After treatment, cells were incubated with 100 nM bafilomycin A1 (Sigma) for 1 hour to induce lysosomal alkalinization. Then cells were incubated for 30 minutes with the 33 μM of β-gal substrate dodecanoylaminofluorescein di-β-D-galactopyranoside (C12FDG; Invitrogen), which becomes fluorescent after cleavage to C12-fluorescein. After washing twice with cold PBS, cells were resuspended in cold PBS containing 1 mM phenylethyl thiogalactoside (PETG), a β-gal inhibitor, and analyzed by flow cytometry for C12-fluorescein.

[9] = system: IRF-4 in U266; assay: Western blot of IRF-4; settings: U266, 1 nM, 2 days
Protocol: Cells were lysed using RIPA buffer (50 mM Tris HCl pH 8, 150 mM NaCl, 1% NP-40, 0.5% sodium deoxycholate, 0.1% SDS) containing a protease inhibitor cocktail (Roche Applied Science, Indianapolis, Ind.). The cytosolic fractions were reduced with β-mercaptoethanol and separated by SDS-PAGE. Following transfer to nitrocellulose membrane (Whatman, Piscataway, N.J.) and blocking, samples were incubated with the following primary rabbit antibodies: anti-IRF4 (Epitomics, Berlingham, Calif.), anti-glyceraldehyde-3-phosphate dehydrogenase (GAPDH; Sigma), anti-ppRb Ser807/811 (Santa Cruz Biotechnology, Santa Cruz, Calif.), anti-cyclin D (Millipore, Billerica, Mass.), or anti-β tubulin (Abcam, Cambridge, Mass.). Secondary anti-rabbit IgG-HRP (GE Healthcare, Billerica, Mass.) was used and the blots were developed using enhanced chemiluminescence (ECL; Thermo Scientific, Waltham, Mass.).
Cells were lysed using RIPA buffer (50 mM Tris-HCl pH 8, 150 mM NaCl, 1% NP-40, 0.5% sodium deoxycholate, 0.1% SDS) containing a protease inhibitor cocktail (Roche Applied Science). The cytosolic fractions were reduced with β-mercaptoethanol and separated by SDS PAGE. […] Films were imaged using a Multilmage™ Light Cabinet (Alpha Innotech Corp.) and analyzed using NIH Image J. Bands were normalized to a GAPDH loading control and expressed as percentage band intensity of untreated cells.

[10] = system: primary myeloma cells from patients; assay: Treatment of primary myeloma cells from patients (trypan blue / MTT); settings: 25 nM, 72 h
Protocol: Trypan blue and MTT assays were used to determine the number of viable cells. The percentage of viable recovered cells was calculated based upon the number of viable cells recovered from DMSO-treated control cells, which was arbitrarily designated as 100%.
Percent viable cell recovery was determined by trypan blue staining, with untreated control cells designated as 100%.

IFNα: recombinant human interferon alpha 2, unfused
cell viability / growth inhibition (MTS assay), result in words [1]: very similar activity | changes in cell cycle / DNA content, result in words [2]: did not exhibit any changes in cell cycle or DNA content | % G1 [3]: 64.8% | % G2/M [3]: 17.0% | % S [3]: 14.3% | >G2 [3]: 0.0% | Sub G0/G1 [3]: 19.8% | changes in cell cycle / DNA content, result in words [3]: did not exhibit any changes in cell cycle or DNA content | % G1 [4]: 21.0% | % G2/M [4]: 34.2% | % S [4]: 31.5% | >G2 [4]: 11.6% | Sub G0/G1 [4]: 10.3% | % G1 [5]: 41.5% | % G2/M [5]: 25.4% | % S [5]: 21.7% | >G2 [5]: 7.6% | Sub G0/G1 [5]: 21.2% | % G1 [6]: 30.1% | % G2/M [6]: 19.2% | % S [6]: 45.6% | >G2 [6]: 1.2% | Sub G0/G1 [6]: 19.0% | changes in cell cycle / DNA content, result in words [6]: did not cause apoptosis or blocks to cell cycle progression | % G1 [7]: 52.5% | % G2/M [7]: 14.3% | % S [7]: 23.6% | >G2 [7]: 5.7% | Sub G0/G1 [7]: 14.0% | changes in cell cycle / DNA content, result in words [7]: did not exhibit any changes in cell cycle or DNA content | β-gal activity at pH 6 (senescence), result in words [8]: increases in β-gal activity | IRF-4 expression (Western blot) [9]: decrease was similar | viability of primary myeloma cells, result in words [10]: little effect
